ChEMBL document CHEMBL1130595, “New generation dopaminergic agents. 5. Heterocyclic bioisosteres that exploit the 3-OH-N1-phenylpiperazine dopaminergic template” (Bioorg Med Chem Lett, 1998)

By UniProt entry, the sequences of proteins in these tests, tags left out.
UniProt P14416, whole entry: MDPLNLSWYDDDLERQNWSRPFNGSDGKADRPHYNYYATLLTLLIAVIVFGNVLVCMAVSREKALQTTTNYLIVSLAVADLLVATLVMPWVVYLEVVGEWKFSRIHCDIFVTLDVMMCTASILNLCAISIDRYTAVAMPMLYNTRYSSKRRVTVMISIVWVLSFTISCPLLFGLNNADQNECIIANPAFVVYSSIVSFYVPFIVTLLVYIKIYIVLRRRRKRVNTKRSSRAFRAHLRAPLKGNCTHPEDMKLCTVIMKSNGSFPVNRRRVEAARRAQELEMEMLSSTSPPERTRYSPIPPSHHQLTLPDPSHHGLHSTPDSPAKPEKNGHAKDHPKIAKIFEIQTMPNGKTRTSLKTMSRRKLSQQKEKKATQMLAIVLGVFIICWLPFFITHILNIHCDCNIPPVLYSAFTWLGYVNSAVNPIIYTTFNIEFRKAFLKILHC
UniProt P61169, whole entry: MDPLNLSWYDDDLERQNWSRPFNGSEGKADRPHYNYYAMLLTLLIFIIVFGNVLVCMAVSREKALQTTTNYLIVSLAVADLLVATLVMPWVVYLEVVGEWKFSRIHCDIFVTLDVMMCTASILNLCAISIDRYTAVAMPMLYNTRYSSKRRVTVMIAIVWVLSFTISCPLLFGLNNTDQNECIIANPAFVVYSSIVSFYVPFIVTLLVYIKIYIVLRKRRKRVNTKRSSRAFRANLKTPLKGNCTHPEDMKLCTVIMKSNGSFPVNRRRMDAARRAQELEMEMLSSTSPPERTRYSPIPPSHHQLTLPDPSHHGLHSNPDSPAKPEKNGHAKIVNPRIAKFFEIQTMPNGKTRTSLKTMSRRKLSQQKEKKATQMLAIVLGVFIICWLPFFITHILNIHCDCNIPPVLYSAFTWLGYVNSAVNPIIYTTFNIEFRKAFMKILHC

Columns and labels:
D(2) dopamine receptor [1] = target: D(2) dopamine receptor (Homo sapiens, UniProt P14416); assay: Affinity towards human Dopamine receptor D2 expressed in CHO cells using [3H]spiperone; format: cell-based
D(2) dopamine receptor [2] = target: T1, D(2) dopamine receptor (Rattus norvegicus, UniProt P61169)
D(2) dopamine receptor [3] = target: T1, D(2) dopamine receptor; remark: listed apart in the source

Work on O=c1[nH]c2cccc(N3CCN(Cc4ccccc4)CC3)c2[nH]1 yielded a pKi (D(2) dopamine receptor [1]) of 7.06, a pKi (D(2) dopamine receptor [2]) of 8.38 and a pKi (D(2) dopamine receptor [3]) of 7.34.

pKi: −log10 of the molar value.
